{"sequences": {"note": "Sequences of proteins named here, by UniProt entry; tags and fusion partners are left off.", "UniProt P61081, whole entry, looked up": "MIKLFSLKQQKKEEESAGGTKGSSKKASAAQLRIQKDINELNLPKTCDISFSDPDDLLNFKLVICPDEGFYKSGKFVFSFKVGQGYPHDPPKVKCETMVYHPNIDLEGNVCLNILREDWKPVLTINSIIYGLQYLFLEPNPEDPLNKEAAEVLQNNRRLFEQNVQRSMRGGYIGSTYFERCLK", "UniProt Q13564, whole entry, looked up": "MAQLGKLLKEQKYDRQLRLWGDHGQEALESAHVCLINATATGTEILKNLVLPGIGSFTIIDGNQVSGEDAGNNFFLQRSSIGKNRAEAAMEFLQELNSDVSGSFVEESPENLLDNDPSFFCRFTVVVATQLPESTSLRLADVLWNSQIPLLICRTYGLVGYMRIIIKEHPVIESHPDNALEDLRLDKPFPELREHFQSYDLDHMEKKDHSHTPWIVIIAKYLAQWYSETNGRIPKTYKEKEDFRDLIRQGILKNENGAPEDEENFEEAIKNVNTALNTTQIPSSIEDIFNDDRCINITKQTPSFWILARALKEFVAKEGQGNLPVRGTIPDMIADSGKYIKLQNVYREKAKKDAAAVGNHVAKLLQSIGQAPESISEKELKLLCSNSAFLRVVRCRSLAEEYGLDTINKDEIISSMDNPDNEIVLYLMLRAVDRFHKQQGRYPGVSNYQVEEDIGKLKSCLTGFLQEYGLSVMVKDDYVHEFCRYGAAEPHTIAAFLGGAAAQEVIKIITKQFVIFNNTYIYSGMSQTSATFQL"}, "source": "PubChem BioAssay AID651699", "about": "(Sanford-Burnham Center for Chemical Genomics, 2012)", "note": "The entries are a selection whose mix differs from that of the whole data set. Activity calls are given as the source filed them. No stated cut-off is given here; in the data, active means inhibition above about 36%; inactive means the rest."}
{"target": "NEDD8-conjugating enzyme Ubc12 (Homo sapiens) + NEDD8-activating enzyme E1 regulatory subunit (Homo sapiens) (UniProt P61081+Q13564)", "assay": "inhibitors of cullin neddylation, primary screen, biochemical, TR-FRET, uHTS, NAE and Ubc12 (AID 651699)", "conditions": "at 25 µM, active compounds read high"}
{"smiles": "CCC(=O)N(c1ccccc1)C1(COC)CCN(CCn2nnn(CC)c2=O)CC1", "inhibition": "inactive: -10.2%"}
{"smiles": "CCC(=O)N(c1ccccc1)C1(COC)CCN(CCc2cccs2)CC1", "inhibition": "inactive: -7.2%"}
